Literature values in US9267122B2, “Modulation of phospholipase D for the treatment of neurodegenerative disorders” (THE TRUSTEES OF COLUMBIA UNIVERSITY IN THE CITY OF NEW YORK, priority 2009, dated 2016).

Biological target: T1, PLD1 (Homo sapiens, UniProt Q13393)
T1 sequence (Q13393 1-1074): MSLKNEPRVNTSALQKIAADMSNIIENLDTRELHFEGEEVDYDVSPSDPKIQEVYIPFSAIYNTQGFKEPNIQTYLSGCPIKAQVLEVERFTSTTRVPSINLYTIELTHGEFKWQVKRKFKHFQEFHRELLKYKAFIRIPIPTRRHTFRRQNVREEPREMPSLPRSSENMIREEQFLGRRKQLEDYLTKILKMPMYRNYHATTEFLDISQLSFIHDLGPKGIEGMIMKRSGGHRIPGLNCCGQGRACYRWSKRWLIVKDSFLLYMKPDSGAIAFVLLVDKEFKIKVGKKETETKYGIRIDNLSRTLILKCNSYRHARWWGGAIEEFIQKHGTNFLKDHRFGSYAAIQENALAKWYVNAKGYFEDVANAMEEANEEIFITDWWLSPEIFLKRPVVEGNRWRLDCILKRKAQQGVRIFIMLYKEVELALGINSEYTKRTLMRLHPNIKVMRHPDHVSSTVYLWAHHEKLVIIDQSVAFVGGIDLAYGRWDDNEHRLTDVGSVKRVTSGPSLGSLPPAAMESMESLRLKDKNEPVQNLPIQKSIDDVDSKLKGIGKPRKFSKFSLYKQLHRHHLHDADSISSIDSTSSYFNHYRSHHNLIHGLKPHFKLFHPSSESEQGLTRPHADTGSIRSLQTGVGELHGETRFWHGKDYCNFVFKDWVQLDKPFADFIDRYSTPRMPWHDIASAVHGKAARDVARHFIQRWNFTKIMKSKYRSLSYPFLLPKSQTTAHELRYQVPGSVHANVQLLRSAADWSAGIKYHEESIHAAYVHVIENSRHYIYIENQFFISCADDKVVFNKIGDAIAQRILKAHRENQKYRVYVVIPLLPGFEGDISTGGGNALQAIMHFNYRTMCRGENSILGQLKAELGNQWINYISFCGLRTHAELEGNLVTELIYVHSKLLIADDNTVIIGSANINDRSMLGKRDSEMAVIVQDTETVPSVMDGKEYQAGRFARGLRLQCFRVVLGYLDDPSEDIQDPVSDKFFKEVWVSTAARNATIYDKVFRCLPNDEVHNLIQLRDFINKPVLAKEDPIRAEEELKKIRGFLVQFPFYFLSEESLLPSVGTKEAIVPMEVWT
Conditions: PLD1 versus PLD2; cited from earlier work

O=C(NCCN1CCC2(CC1)C(=O)NCN2c1ccccc1)c1cnc2ccccc2c1 [compound 9b, N-(2-(4-oxo-1-phenyl-1,3,8-triazaspiro[4,5]decan-8-yl)ethyl)quinoline-3-carboxamide]
PLD isoform selectivity: PLD2 selective
